Assay results from ChEMBL document CHEMBL1140138, “Novel opioid peptide derived antagonists containing (2S)-2-methyl-3-(2,6-dimethyl-4-carbamoylphenyl)propanoic acid [(2S)-Mdcp]” (J Med Chem, 2008).

Sequences of proteins named here, by UniProt entry; tags and fusion partners are left off.
UniProt P32300, whole entry: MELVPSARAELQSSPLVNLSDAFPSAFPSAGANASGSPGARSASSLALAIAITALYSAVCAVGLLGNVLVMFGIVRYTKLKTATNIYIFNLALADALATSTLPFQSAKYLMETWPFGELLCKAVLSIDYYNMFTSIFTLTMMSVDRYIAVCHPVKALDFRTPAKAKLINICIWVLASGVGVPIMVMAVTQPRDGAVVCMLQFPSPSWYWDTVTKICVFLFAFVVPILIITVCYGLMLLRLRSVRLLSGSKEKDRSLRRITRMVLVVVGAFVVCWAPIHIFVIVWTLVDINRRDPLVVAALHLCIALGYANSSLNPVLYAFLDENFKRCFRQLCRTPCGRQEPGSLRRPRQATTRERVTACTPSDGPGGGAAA

Target: Delta-type opioid receptor (Mus musculus, UniProt P32300)
Assay: Antagonist activity against delta opioid receptor in mouse vas deference assessed as effect on DPDPE-induced response
Type: functional
How it was run: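 Isolated tissue bioassays: mu and kappa antagonism measured in guinea pig ileum, delta antagonism in mouse vas deferens. Antagonist potency expressed as Ke (nM).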

## C[C@@H](O)[C@H](NC(=O)[C@H]1NC(=O)[C@H]([C@@H](C)O)NC(=O)[C@H](CCCN)NC(=O)[C@@H](Cc2c[nH]c3ccccc23)NC(=O)[C@H](Cc2ccc(O)cc2)NC(=O)[C@@H](NC(=O)[C@H](N)Cc2ccccc2)CSSC1(C)C)C(N)=O
  IC50: 13.5 µM
